pIC50: −log10 of the molar value.

Experimental findings from ChEMBL document CHEMBL2021912, “Synthesis, cytotoxicity and apoptosis of cyclotriphosphazene compounds as anti-cancer agents” (Eur J Med Chem, 2012) are described below.

The subject of one series is Vero. In words: Cytotoxicity against african green monkey Vero cells after 24 hrs at 37 degC by MTT assay. Type of series: cell-based. The conditions noted are these: for CC50: read-out: ID50, chlorocebus sabaeus. A general note: Tetrazolium dyes change colour on reduction, which living cells bring about.
A further series deals with HT-29. In words: Cytotoxicity against human HT-29 cells after 24 hrs at 37 degC by MTT assay. The conditions noted are these: read-out: ID50. Type of series: functional. In short, it runs like this: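 Vero and HT-29 grown in DMEM/10% FBS, Hep2 in EMEM/10% FBS; seeded at 2 × 10^4 (Vero, Hep2) or 3 × 10^4 (HT-29) cells/mL; exposed 24 h to 0.2–50 µg/mL compound, final DMSO 1%; MTT 1 mg/mL 2 h at 37 °C, formazan in DMSO, OD 540 nm; % of DMSO control; ID50 by probit; triplicate wells, three repeats.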

For `FC1(F)COP2(Cl)=NP(Cl)(Cl)=NP(Cl)(=N2)OCC1(F)F` (configuration not stated), the CC50 in the series with Vero worked out at 5.84 µM. On to `ClP1(Cl)=NP(Cl)(Cl)=NP(Cl)(Cl)=N1`, for which, in the series with HT-29, the pIC50 was 5.15. Besides, in the series with Vero, the CC50 turned out to be 3.16 µM. Consider `ClP1(Cl)=NP(Cl)(Cl)=NP(Sc2ccccc2)(Sc2ccccc2)=N1`, for which the CC50 with Vero came to 3.02 µM. `ClP1(Cl)=NP(Cl)(Cl)=NP(Nc2ccccc2)(Nc2ccccc2)=N1`: the ID50 entry in the series with Vero (chlorocebus sabaeus) is recorded as “Non-toxic”. `CC1(C)COP2(=NP(Cl)(Cl)=NP(Cl)(Cl)=N2)OC1`: the CC50 in the series on Vero turned out to be 2.96 µM. With `FC1(F)COP2(=NP(Cl)(Cl)=NP(Cl)(Cl)=N2)OCC1(F)F`, in the series with Vero, the CC50 worked out at 3.55 µM.
